# Source: patent publication US3939204A, “Radioactive functional diagnostic agents” (priority 1972, dated 1976)
# What was measured:
# [1] = background statement in words; cited from earlier work
# [2] = distribution in the body as function of time after intravenous administration, measured by scinticamera; conditions: humans, approximately 0.25 millicurie per injection
substance,measurement,setting,value
bromthalein-131-iodine sodium salt [C],elimination from the liver,[1],after a longer period of time
same,maximum accumulation in the liver,[1],after a longer period of time
same,Time of Appearance in Gallbladder,[2],45 min
same,Time of Appearance in Intestine,[2],15 min
same,Blood T 1/2,[2]; elimination from blood into liver cells,4.5 min
same,Maximum Liver Accumulation,[2]; time of maximum accumulation,30 min
